These results are taken from US9233167B2, “Oligomer-opioid agonist conjugates” (NEKTAR THERAPEUTICS, priority 2007, dated 2016).

Amino acid sequences for entries named in this document (tags omitted).
UniProt P41143, whole entry, looked up: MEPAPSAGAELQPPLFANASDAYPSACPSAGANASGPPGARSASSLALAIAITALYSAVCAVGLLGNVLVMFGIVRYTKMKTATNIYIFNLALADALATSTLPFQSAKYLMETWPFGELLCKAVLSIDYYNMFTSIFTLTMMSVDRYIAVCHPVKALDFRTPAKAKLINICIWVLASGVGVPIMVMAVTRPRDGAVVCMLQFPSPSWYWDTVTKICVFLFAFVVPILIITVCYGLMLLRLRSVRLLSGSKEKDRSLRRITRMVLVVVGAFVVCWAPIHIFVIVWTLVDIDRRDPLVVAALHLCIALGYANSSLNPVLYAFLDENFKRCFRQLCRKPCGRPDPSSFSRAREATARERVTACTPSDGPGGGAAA

In data set [1] the target is recombinant human delta opioid receptor (Homo sapiens (Human), UniProt P41143). The note with it: GTP-γS binding, up to 10 μM. For orientation: GTPγS resists hydrolysis and so accumulates on activated G proteins.
Data set [2] in a line: Intravenous pharmacokinetics in Sprague-Dawley rats. The following applies: IV 1 mg/kg.

Regarding 6-O-mPEG9-nalbuphine, the “effect at the delta opioid receptor” value in data set [1] was “weak antagonistic”.

Take α-6-mPEG6-O-codeine: the “mean t1/2 value as multiple of that of the parent molecule” value in data set [2] is listed as “approximately 2.5 times”.
